The source of these data is US6537988B2, “Synergistic methods and compositions for treating cancer” (Bristol-Myers Squibb Company, priority 2000, dated 2003).

The structures appear in SMILES notation.

A short description of series [1]: Maximum tolerated dose / regimen in tumor-bearing mice. Format: in vivo, nude mice. The note with it: HCTVM46 study FIG. 13; single agents, q4d×3.
The test system of series [2] is HCT-116 human colon carcinoma cells. As to the kind of experiment: Clonogenic cell colony-formation assay, stationary vs log phase cells. The note with it: IC90 Log / IC90 Stationary, HCT116.

Compound `N#Cc1ccc2c(c1)CN(S(=O)(=O)c1cccs1)[C@H](Cc1ccccc1)CN2Cc1cnc[nH]1` returned a maximum tolerated regimen in series [1] of 400 mg/kg.

Turning to `N#Cc1ccc2c(c1)CN(S(=O)(=O)c1cccs1)[C@H](Cc1ccccc1)CN2Cc1c[nH]cn1`, the “Non-proliferative cells selectivity ratio (fold)” value in series [2] is recorded as 44.2 fold.
